The text below walks through data of US8975247B2, “Methods and compositions of treating a flaviviridae family viral infection” (priority 2009, dated 2015).

Chains of the proteins cited; added tags and fusions are not shown.
UniProt Q12809, whole entry: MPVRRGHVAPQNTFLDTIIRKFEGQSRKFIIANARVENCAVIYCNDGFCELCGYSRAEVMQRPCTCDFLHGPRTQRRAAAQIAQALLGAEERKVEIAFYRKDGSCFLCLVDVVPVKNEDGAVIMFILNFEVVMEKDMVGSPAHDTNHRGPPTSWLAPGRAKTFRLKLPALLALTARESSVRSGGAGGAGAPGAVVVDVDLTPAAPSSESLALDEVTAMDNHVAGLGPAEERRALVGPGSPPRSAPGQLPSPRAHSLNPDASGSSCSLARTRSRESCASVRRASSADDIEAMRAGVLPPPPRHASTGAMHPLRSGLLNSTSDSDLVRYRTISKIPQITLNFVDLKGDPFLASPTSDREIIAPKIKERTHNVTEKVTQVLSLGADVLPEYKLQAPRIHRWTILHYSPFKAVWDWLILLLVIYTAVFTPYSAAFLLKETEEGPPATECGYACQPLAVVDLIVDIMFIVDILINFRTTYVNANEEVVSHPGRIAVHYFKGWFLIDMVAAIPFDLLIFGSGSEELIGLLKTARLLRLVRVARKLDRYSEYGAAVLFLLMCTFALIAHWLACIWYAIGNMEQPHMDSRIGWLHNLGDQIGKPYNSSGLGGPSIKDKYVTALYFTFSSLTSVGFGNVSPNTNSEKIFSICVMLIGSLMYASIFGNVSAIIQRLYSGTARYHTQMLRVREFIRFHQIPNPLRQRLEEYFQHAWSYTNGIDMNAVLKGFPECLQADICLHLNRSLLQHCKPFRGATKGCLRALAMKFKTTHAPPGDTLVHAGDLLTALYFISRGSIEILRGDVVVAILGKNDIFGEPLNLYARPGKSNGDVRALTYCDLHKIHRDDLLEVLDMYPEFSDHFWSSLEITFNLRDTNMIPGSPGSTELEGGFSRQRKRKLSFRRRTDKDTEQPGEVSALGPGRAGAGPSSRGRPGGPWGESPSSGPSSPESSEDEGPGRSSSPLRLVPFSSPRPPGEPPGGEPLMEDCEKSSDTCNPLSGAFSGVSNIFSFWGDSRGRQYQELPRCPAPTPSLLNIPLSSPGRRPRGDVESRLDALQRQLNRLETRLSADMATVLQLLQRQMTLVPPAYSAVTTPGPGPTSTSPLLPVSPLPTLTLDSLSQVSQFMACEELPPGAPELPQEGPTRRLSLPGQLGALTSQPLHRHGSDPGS

This data set deals with hERG channel (Homo sapiens (Human), UniProt Q12809). Briefly: hERG channel assay (whole cell patch clamp). The note with it: read-out: hERG IC50; CHO cell line expressing hERG. In kind it is cell-based.

In the case of `F[C@@H]1CCN(Cc2nc3ccccc3n2Cc2ccc(Cl)cc2)C1`, the IC50 was found to be 10 µM.
